Results published in PubChem BioAssay (NCI).
Where “and” joins values, the source holds several entries; their conditions need not be identical. Identical values can stand only once. The list shows a part of the results, in another mix than the full data. Calls of active or inactive are those of the source. Rule as the data show it: active = growth inhibition above about 70%; inactive = the rest.

Key:
[1] = NCI Yeast Anticancer Drug Screen. Data for the rad50 strain (AID 155);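 also: 0% = growth of vehicle-only cultures of the same strain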; details: S. cerevisiae rad50 strain growth inhibition; at 50.0 µM; stronger effect = higher value
[2] = NCI Yeast Anticancer Drug Screen. Data for the mec2-1 strain (AID 157); details: S. cerevisiae mec2-1 strain, at 50.0 µM, stronger effect = higher value
[3] = NCI Yeast Anticancer Drug Screen. Data for the sgs1 mgt1 strain (AID 161);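 also: 0% = growth of cultures given vehicle only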; details: S. cerevisiae sgs1 mgt1 strain, at 50.0 µM, stronger effect = higher value
[4] = NCI Yeast Anticancer Drug Screen. Data for the cln2 rad14 strain (AID 165);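 also: 0% = growth equal to vehicle treated cultures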; details: S. cerevisiae cln2 rad14 strain, at 50.0 µM, stronger effect = higher value
[5] = NCI Yeast Anticancer Drug Screen. Data for the bub3 strain (AID 167); details: S. cerevisiae bub3 mutant strain, at 50.0 µM, stronger effect = higher value
[6] = NCI Yeast Anticancer Drug Screen. Data for the mlh1 rad18 strain (AID 175); details: S. cerevisiae mlh1 rad18 strain growth inhibition; at 50.0 µM; stronger effect = higher value

Measured: growth inhibition

O=[N+]([O-])c1cc([As](=O)(O)O)ccc1Cc1ccc([As](=O)(O)O)cc1[N+](=O)[O-]
inactive: [1] -12.9% | [2] 16.8% | [3] -12.2% | [4] -10.7% | [5] -18.2% | [6] 4.65%

CN(C)NC(=O)NP(=O)(NC(=O)NN(C)C)NC(=O)NN(C)C
inactive: [1] -5.85% | [2] 9.4% | [3] 10.3% | [4] -4% | [5] 10% | [6] -0.25%

ClCCN1Cc2ccccc2C1
inactive: [1] 39.1% | [2] -8.2% | [3] 11.7% | [4] 2.15% | [5] -2.1% | [6] 30%

[O-]/[N+](=C/c1ccc(N(CCCl)CCCl)cc1)CCO
inactive: [1] 1.05% | [2] 22.1% | [3] -7.4% | [4] -1.25% | [5] 17.1% | [6] -4.95%

ClCCNCc1ccccc1
inactive: [1] 46.5% | [2] -14.7% | [3] 5.7% | [4] 7.25% | [5] 5.25% | [6] 27.1%

CC[C@H](C)[C@@H]1NC(=O)/C(=C(\C)O)C1=O
inactive: [1] 14.2% | [2] 1.75% | [3] 6.95% | [4] 13.4% | [5] 4.8% | [6] -2.85%

O=C(O)C(CCCNc1ccc([N+](=O)[O-])cc1[N+](=O)[O-])Nc1ccc([N+](=O)[O-])cc1[N+](=O)[O-] (centres undefined)
inactive: [1] 42.4% | [2] 13.6% | [3] 43.7% | [4] 22% | [5] 5.65% | [6] 40%

C=CCCC[P+](CC)(c1ccccc1)c1ccccc1
inactive: [1] 64.3% | [2] 20.6% | [3] 10.4% | [4] -15.4% | [5] 20.1% | [6] 3.8%

S=P(Cl)(Oc1ccc(Cl)cc1)Oc1ccc(Cl)cc1
inactive: [1] -5.55% | [2] 13% | [3] 12.3% | [4] -4.55% | [5] -0.65% | [6] 14.3%

CN1C(=O)N(C)P12(Cl)N(C)C(=O)N2C
inactive: [1] 20.5% | [2] -4.25% | [3] 9.2% | [4] 19.3% | [5] 17.4% | [6] 24.1%

CCCCOP(=S)(Cl)OCCCC
inactive: [1] -5.7% | [2] -0.4% | [3] -10.9% | [4] 34.5% | [5] 8% | [6] -12.3%

Cc1[nH]c2cc([N+](=O)[O-])c([N+](=O)[O-])cc2c1[N+](=O)[O-]
inactive: [1] 19.3% | [2] -11.8% | [3] 10.6% | [4] 19.6% | [5] -6.45% | [6] 4.3%

CC(C)SC(OC(=O)COc1ccc(Cl)cc1)C(Cl)(Cl)Cl (centres undefined)
inactive: [1] -3.8% | [2] -5.4% | [3] 4.4% | [4] -10.2% | [5] -2.35% | [6] 11.4%

NC(=O)CNc1ccc([As](=O)(O)O)cc1
inactive: [1] 7.1% and -5.5% | [2] 16.6% and -5% | [3] 2.9% and 11.2% | [4] -3.15% and -38.4% | [5] 13.7% and 18% | [6] -17.8% and -1.5%

CS(=O)(=O)OCCCOP(N)(=O)N(CCCl)CCCl (centres undefined)
inactive: [1] 20.5% | [2] 3.65% | [3] 4.75% | [4] -20.6% | [5] -5.4% | [6] -12.8%

O=C(O)C[n+]1ccc(/C=C/c2ccccc2)cc1
inactive: [1] -13.8% | [2] 8.1% | [3] 2.85% | [4] -29.2% | [5] -17.1% | [6] 0.5%

O=P1(N(CCCl)CCCl)NC(CO)CO1 (centres undefined)
inactive: [1] -7.35% | [2] 12% | [3] -1.5% | [4] -23.6% | [5] 8.65% | [6] 19.7%

COc1ccc(S(=O)(=O)N(CCCl)CCCl)cc1
inactive: [1] -14.9% | [2] 4.9% | [3] -5% | [4] -30.4% | [5] 45.8% | [6] 5.55%

O=C(Nc1ccc(Br)cc1)NP(=O)(Nc1ccccc1)Nc1ccccc1
inactive: [1] -8.85% | [2] 2.9% | [3] -1.1% | [4] -20.3% | [5] 11.9% | [6] -11.7%

CC1(CCl)COP(=O)(n2cnc3ccccc32)OC1 (centres undefined)
inactive: [1] 10.6% | [2] 24.5% | [3] 19.1% | [4] -5.55% | [5] 14% | [6] 20.8%

CCOP(=O)(NC(=S)NNC(=O)c1ccncc1)OCC
inactive: [1] -2.15% | [2] 7.6% | [3] 0.35% | [4] -4.85% | [5] 21.1% | [6] -11.8%

C=CCOP(O)OCC=C
inactive: [1] -5.35% | [2] -15.7% | [3] -10.3% | [4] 10.2% | [5] -2.55% | [6] -11.1%

O=[N+]([O-])c1ccc(SC2CCCCC2Cl)c([N+](=O)[O-])c1 (centres undefined)
inactive: [1] -5.2% | [2] -19.1% | [3] -19.9% | [4] -45.5% | [5] -5.15% | [6] 0.2%

CCOC(=O)NC(c1ccc(OC)c(OC)c1)P(=O)(O)Nc1ncn[nH]1 (centres undefined)
inactive: [1] 9.45% | [2] 4.05% | [3] 10.5% | [4] 10.5% | [5] -0.4% | [6] 31.9%

Cc1cccc(N(CCCl)CCCl)c1
inactive: [1] 39.5% | [2] 21.9% | [3] 21.4% | [4] 11.2% | [5] 11.1% | [6] 19.4%

CC(C(=O)NNc1ccc([N+](=O)[O-])cc1[N+](=O)[O-])C(O)C(C)C(=O)NNc1ccc([N+](=O)[O-])cc1[N+](=O)[O-] (centres undefined)
inactive: [1] 35% | [2] 7.05% | [3] 28.3% | [4] 14.8% | [5] 1.15% | [6] 15.9%

Cc1ccc(OP(=O)(Cl)Oc2ccc(C)cc2)cc1
inactive: [1] -10.4% | [2] -24.5% | [3] 0.35% | [4] 6.5% | [5] -9.4% | [6] 8.95%

CCOP(=O)(Nc1ccccc1)OCC
inactive: [1] 9.9% | [2] 12.1% | [3] -4.2% | [4] -13.2% | [5] -5.35% | [6] -2.05%

CCCCOP(OCCCC)OCCCC
inactive: [1] -12.4% | [2] -33% | [3] -16.9% | [4] 3.3% | [5] 0.75% | [6] -11.7%

CC(C)OC(=O)N1N=C(OC(C)C)OP12=NC(c1ccccc1)=NN2C (centres undefined)
inactive: [1] 1.5% | [2] -0.6% | [3] -11.6% | [4] -6.1% | [5] -2.2% | [6] 9.15%

CN(C)C(=O)Oc1ccc(/C=N/NC(N)=S)nc1
inactive: [1] 33.4% | [2] 31.4% | [3] 23.4% | [4] 5.3% | [5] 29.6% | [6] 33.3%

[N-]=[N+]=NC(COC(=O)c1cc([N+](=O)[O-])cc([N+](=O)[O-])c1)c1ccccc1 (centres undefined)
inactive: [1] -10.3% | [2] -16.1% | [3] 6.2% | [4] -32.6% | [5] -0.55% | [6] 1.5%

O=[N+]([O-])c1ccc(-c2ccccc2[N+](=O)[O-])c([N+](=O)[O-])c1
inactive: [1] 31.5% | [2] 16.7% | [3] 7.95% | [4] 14.4% | [5] 16.9% | [6] 40.6%

C=C1N2CCC(CC2)C1(OC(=O)CC)c1ccccc1 (centres undefined)
inactive: [1] -3.6% | [2] 4.4% | [3] -5.55% | [4] -5.15% | [5] -5% | [6] -5.4%

CC1(C)NC(C)(C)C(Br)C(=O)C1Br (centres undefined)
inactive: [1] -14.4% | [2] -11.2% | [3] 13.2% | [4] 4.65% | [5] -1.8% | [6] 2.7%

O=[N+]([O-])c1ccc(N/N=C\CCCCCC/C=N/Nc2ccc([N+](=O)[O-])cc2[N+](=O)[O-])c([N+](=O)[O-])c1
inactive: [1] 17.1% | [2] -1.7% | [3] -11.4% | [4] 9.85% | [5] -4% | [6] 7%

CN(C)C(=O)Oc1ccc([N+](C)(C)C)cc1OC(=O)N(C)C
inactive: [1] 0.35% | [2] -1.05% | [3] 0.55% | [4] 6.95% | [5] -0.85% | [6] -20.6%

NC1(C(=O)O)Cc2ccc(N(CCCl)CCCl)cc2C1 (centres undefined)
inactive: [1] 0.35% | [2] 31.9% | [3] -4.6% | [4] 4.95% | [5] 7.35% | [6] 46.9%

O=[N+]([O-])c1cccc(SC2CCCCC2Cl)c1 (centres undefined)
inactive: [1] -0.75% | [2] 21.2% | [3] 0.9% | [4] 54.1% | [5] 27.8% | [6] 12.4%
